From PubChem BioAssay AID570 (The Scripps Research Institute Molecular Screening Center, 2006)
The entries are a selection whose mix differs from that of the whole data set. The source made the active and inactive calls.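 Rule for the calls: active = inhibition above the mean of compound-free control plate wells plus 3 SD (cut at about 14% in these data); inactive = the rest.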

Target: Collagenase 3 (Homo sapiens) (UniProt P45452)
Assay: human MMP13 inhibitors, primary screen, biochemical, FRET peptide cleavage (AID 570);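 note: 0% = DMSO wells and 100% = wells with reference MMP-13 inhibitor after basal subtraction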
Conditions: MMP-13 fTHP FRET cleavage, Mca fluorescence; at 4 µM; active compounds read high

Compound	inhibition
Cc1nc2ccc3ccccc3c2s1.O=[N+]([O-])c1cc([N+](=O)[O-])c(O)c([N+](=O)[O-])c1	inactive: 3.2%
Cc1ccc(C)c(NP(C)(=O)Oc2ccccc2)c1 (stereo not drawn)	inactive: 1.5%
COc1ccccc1OP(C)(=O)Nc1ccc(C)cc1 (stereo not drawn)	inactive: 5.1%
Cc1ccc(NP(C)(=O)Oc2ccccc2)c(C)c1 (stereo not drawn)	inactive: 3.3%
CP(=O)(NC(=O)Nc1ccccc1)Oc1ccccc1 (stereo not drawn)	inactive: -0.6%
CCOP(C)(=S)SCC(=O)NC(C)C(=O)O (stereo not drawn)	inactive: -4.8%
CP(=S)(Nn1cnnc1)Oc1ccccc1 (stereo not drawn)	inactive: 1.3%
COc1ccccc1OP(C)(=O)Nc1c(C)n(C)n(-c2ccccc2)c1=O (stereo not drawn)	inactive: -0.7%
CP(=O)(Oc1ccccc1)N1CCOC1=O (stereo not drawn)	inactive: -2.8%
CCN(CC)CC(O)COC(=O)C(O)(c1ccccc1)C1CCCCC1 (stereo not drawn)	inactive: 1.9%
CP(=O)(Nc1ccccn1)Oc1ccccc1 (stereo not drawn)	inactive: 2%
COc1ccccc1OP(C)(=O)Nc1ccc(C)c(C)c1 (stereo not drawn)	inactive: -5%
Cc1nc2ccc3ccccc3c2o1.O=[N+]([O-])c1cc([N+](=O)[O-])c(O)c([N+](=O)[O-])c1	inactive: 6.6%
CP(=O)(Nc1ccccc1F)Oc1ccccc1 (stereo not drawn)	inactive: -4.9%
CCOP(C)(=S)SCC(=O)NC(C)(CC)C(=O)O (stereo not drawn)	inactive: 2.2%
Cc1ccccc1NP(C)(=O)Nc1ccccc1C	inactive: 6.6%
CP(=O)(Nc1ccc2c(c1)OCCO2)Oc1ccccc1 (stereo not drawn)	inactive: 3.5%
CN(C)CCOC(=O)C(O)(c1ccccc1)C1CCCCC1 (stereo not drawn)	inactive: -4.5%
